Reference: patent publication US12692254B2, “Benzimidazole inhibitors of PAD enzymes” (BRISTOL-MYERS SQUIBB COMPANY, priority 2018, dated 2026)

Amino acid sequences for entries named in this document (tags omitted).
UniProt Q9UM07, whole entry: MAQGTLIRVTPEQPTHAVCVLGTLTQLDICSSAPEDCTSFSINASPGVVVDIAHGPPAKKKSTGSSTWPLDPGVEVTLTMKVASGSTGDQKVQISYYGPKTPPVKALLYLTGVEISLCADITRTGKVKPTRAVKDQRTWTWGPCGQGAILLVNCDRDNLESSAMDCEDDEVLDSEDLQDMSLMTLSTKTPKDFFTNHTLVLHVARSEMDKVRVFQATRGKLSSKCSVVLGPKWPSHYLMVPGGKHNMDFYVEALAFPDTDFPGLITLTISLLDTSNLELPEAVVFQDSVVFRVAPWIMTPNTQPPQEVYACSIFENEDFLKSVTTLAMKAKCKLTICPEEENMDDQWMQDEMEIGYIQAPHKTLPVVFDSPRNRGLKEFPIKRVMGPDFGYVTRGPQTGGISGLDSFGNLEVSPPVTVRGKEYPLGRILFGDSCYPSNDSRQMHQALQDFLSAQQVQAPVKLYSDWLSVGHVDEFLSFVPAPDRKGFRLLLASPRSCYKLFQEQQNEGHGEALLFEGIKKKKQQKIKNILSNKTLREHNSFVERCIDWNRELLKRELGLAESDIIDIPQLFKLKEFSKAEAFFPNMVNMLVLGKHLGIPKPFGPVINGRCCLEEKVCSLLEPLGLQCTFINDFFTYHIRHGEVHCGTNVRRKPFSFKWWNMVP

Target: human PAD4 (hPAD4) (Homo sapiens, UniProt Q9UM07)
Test: RFMS human PAD4 functional assay (rapid-fire mass spectrum)
Details: read-out: hPAD4 RFMS IC50; 5 nM hPAD4 enzyme, 250 μM BAEE, 50 μM Calcium; 30 min preincubation, 90 min reaction at 37° C.

IC50: 73 nM
Structure (SMILES): COc1cc(C(=O)N2C[C@H]3CC[C@@H]2[C@@H]3N)cc2nc(-c3cc4cccnc4n3CC3CC3)n(CC3CN(c4ccncn4)C3)c12
